These results are taken from BindingDB's records for doi:10.1016/0896-6273(93)90149-l (The Scripps Research Institute, 1993).

By UniProt entry, the sequences of proteins in these tests, tags left out.
UniProt P32305, whole entry: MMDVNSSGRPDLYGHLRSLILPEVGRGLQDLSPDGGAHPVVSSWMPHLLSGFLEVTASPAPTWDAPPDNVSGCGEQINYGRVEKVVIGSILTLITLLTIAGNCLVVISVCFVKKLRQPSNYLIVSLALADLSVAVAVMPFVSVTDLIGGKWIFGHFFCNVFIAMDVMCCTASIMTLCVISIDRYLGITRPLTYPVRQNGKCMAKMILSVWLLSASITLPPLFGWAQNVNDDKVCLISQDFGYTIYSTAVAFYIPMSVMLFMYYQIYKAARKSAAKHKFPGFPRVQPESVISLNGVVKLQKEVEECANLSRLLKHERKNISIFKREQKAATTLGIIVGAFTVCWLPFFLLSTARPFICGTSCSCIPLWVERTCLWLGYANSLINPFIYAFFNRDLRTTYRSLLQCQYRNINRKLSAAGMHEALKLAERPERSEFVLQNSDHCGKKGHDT
UniProt P19327, whole entry: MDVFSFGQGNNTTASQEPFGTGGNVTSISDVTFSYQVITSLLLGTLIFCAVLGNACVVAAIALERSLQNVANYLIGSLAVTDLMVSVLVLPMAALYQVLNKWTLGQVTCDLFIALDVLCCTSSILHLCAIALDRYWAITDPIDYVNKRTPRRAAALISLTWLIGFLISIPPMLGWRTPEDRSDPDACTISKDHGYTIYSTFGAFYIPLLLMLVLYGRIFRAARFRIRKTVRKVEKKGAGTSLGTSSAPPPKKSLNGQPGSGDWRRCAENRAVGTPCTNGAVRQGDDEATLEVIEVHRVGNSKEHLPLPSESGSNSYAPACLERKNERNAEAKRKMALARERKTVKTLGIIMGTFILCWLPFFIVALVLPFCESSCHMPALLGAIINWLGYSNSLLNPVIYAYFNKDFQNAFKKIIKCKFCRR

For assay [1], the target named is 5-hydroxytryptamine receptor 7 (Rattus norvegicus, UniProt P32305).
Assay [2] has as its target 5-hydroxytryptamine receptor 1A (Rattus norvegicus, UniProt P19327).

Consider `NCC(O)c1ccc(O)c(O)c1` (stereo not drawn) [Noradrenaline,(+)], for which the Ki in assay [1] and in assay [2] was 545 nM throughout.

One may read the Ki as the equilibrium dissociation constant of an inhibitor or competing ligand from its target. Low values mean tighter binding, high ones weaker binding.
